Laboratory results: the NIST ThermoML archive (doi:10.1016/j.fluid.2006.07.015)
± gives the expanded uncertainty stated by the source.

Test: activity coefficient (dimensionless); of the first substance listed, at infinite dilution; xn = mol fraction of the nth substance listed
Details: 101 kPa, Liquid, Chromatography, x1 = 0

activity coefficient (373.15 K): 0.568 ± 0.031 | activity coefficient (388.15 K): 0.528 ± 0.032 | activity coefficient (403.15 K): 0.498 ± 0.033 | activity coefficient (418.15 K): 0.472 ± 0.033 | activity coefficient (433.15 K): 0.475 ± 0.033
SMILES: c1ccc2cccc-2cc1 [bicyclo[5.3.0]deca-2,4,6,8,10-pentaene] + CCCCCCCCCCCCCCCCCCC(CCCCCCCCCCCCCCCCCC)CCCCC(CCCCCCCCCCCCCCCCCC)CCCCCCCCCCCCCCCCCC
